# Experimental data as given in paper PMC5207657 (Journal of the American Chemical Society, 2016).
# The chains behind the UniProt entries cited, without tags or fusion partners. Residues count along the entry.
# UniProt P43220, 24-463: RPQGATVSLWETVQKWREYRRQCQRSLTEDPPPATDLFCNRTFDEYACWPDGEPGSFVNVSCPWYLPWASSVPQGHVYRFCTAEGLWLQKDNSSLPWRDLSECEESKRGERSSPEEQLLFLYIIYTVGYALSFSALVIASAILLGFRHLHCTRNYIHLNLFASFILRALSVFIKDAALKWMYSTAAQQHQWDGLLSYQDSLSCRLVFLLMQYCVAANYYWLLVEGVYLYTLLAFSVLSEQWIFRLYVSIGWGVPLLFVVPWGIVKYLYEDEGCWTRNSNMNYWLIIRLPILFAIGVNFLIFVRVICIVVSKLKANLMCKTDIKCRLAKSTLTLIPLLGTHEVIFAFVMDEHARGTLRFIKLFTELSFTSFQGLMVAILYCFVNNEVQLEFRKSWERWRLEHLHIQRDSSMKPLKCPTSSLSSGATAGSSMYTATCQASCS
# Tests used:
# GLP-1R [1] = molecular target: T1, GLP-1R (Homo sapiens, UniProt P43220); test: GloSensor cAMP reporter assay; type: cell-based; conditions: read-out: cAMP Max Response (% GLP-1)
# GLP-1R [2] = molecular target: T1, GLP-1R; test: cell-based; conditions: HEK293FT, read-out: β-Arrestin-2 Max Response (% GLP-1)
# GLP-1R [3] = molecular target: T1, GLP-1R; test: β-arrestin-1 recruitment BRET^2 assay; conditions: HEK293FT, read-out: β-Arrestin-1 Max Response (% GLP-1)
Emax (GLP-1R [1]) [%],Emax (GLP-1R [2]) [%],Emax (GLP-1R [3]) [%],SMILES
100 ± 1,53 ± 5,30 ± 1,CC[C@H](C)[C@H](NC(=O)[C@H](Cc1ccccc1)NC(=O)[C@H](CCC(=O)O)NC(=O)[C@H](CCCCN)NC(=O)[C@H](C)NC(=O)[C@H](C)NC(=O)[C@H](CCC(N)=O)NC(=O)CNC(=O)[C@H](CCC(=O)O)NC(=O)[C@H](CC(C)C)NC(=O)[C@H](Cc1ccc(O)cc1)NC(=O)[C@H]1CCC[C@@H]1NC(=O)[C@H](CO)NC(=O)C(C)(C)NC(=O)[C@H](CC(=O)O)NC(=O)[C@H](CO)NC(=O)[C@@H](NC(=O)[C@H](Cc1ccccc1)NC(=O)[C@@H](NC(=O)CNC(=O)[C@H](CCC(=O)O)NC(=O)[C@H](C)NC(=O)[C@@H](N)Cc1c[nH]cn1)[C@@H](C)O)[C@@H](C)O)C(=O)N[C@@H](C)C(=O)N[C@@H](Cc1c[nH]c2ccccc12)C(=O)N[C@@H](CC(C)C)C(=O)N[C@H](C(=O)N[C@@H](CCCCN)C(=O)NCC(=O)N[C@@H](CCCNC(=N)N)C(=O)NCC(N)=O)C(C)C [α/β-Peptide 10]
102 ± 1,52 ± 4,37 ± 1,CC[C@H](C)[C@H](NC(=O)[C@H](Cc1ccccc1)NC(=O)[C@H](CCC(=O)O)NC(=O)[C@H](CCCCN)NC(=O)[C@H](C)NC(=O)[C@H](C)NC(=O)[C@H](CCC(N)=O)NC(=O)[C@H]1CCC[C@@H]1NC(=O)[C@H](CCC(=O)O)NC(=O)[C@H](CC(C)C)NC(=O)[C@H](Cc1ccc(O)cc1)NC(=O)[C@H]1CCC[C@@H]1NC(=O)[C@H](CO)NC(=O)[C@@H](NC(=O)[C@H](CC(=O)O)NC(=O)[C@H](CO)NC(=O)[C@@H](NC(=O)[C@H](Cc1ccccc1)NC(=O)[C@@H](NC(=O)CNC(=O)[C@H](CCC(=O)O)NC(=O)[C@H](C)NC(=O)[C@@H](N)Cc1c[nH]cn1)[C@@H](C)O)[C@@H](C)O)C(C)C)C(=O)N[C@@H](C)C(=O)N[C@@H](Cc1c[nH]c2ccccc12)C(=O)N[C@@H](CC(C)C)C(=O)N[C@H](C(=O)N[C@@H](CCCCN)C(=O)NCC(=O)N[C@@H](CCCNC(=N)N)C(=O)NCC(N)=O)C(C)C [α/β-Peptide 11]
103 ± 1,78 ± 3,85 ± 3,CC[C@H](C)[C@H](NC(=O)[C@H](Cc1ccccc1)NC(=O)[C@H](CCC(=O)O)NC(=O)[C@H]1CNC[C@@H]1NC(=O)[C@H](C)NC(=O)[C@H](C)NC(=O)[C@H](CCC(N)=O)NC(=O)[C@H]1CCC[C@@H]1NC(=O)[C@H](CCC(=O)O)NC(=O)[C@H](CC(C)C)NC(=O)[C@H](Cc1ccc(O)cc1)NC(=O)[C@H](CO)NC(=O)[C@H](CO)NC(=O)[C@@H](NC(=O)[C@H](CC(=O)O)NC(=O)[C@H](CO)NC(=O)[C@@H](NC(=O)[C@H](Cc1ccccc1)NC(=O)[C@@H](NC(=O)CNC(=O)[C@H](CCC(=O)O)NC(=O)[C@H](C)NC(=O)[C@@H](N)Cc1c[nH]cn1)[C@@H](C)O)[C@@H](C)O)C(C)C)C(=O)N[C@@H](C)C(=O)N[C@@H](Cc1c[nH]c2ccccc12)C(=O)N[C@@H](CC(C)C)C(=O)N[C@H](C(=O)N[C@@H](CCCCN)C(=O)NCC(=O)N[C@@H](CCCNC(=N)N)C(=O)NCC(N)=O)C(C)C [α/β-Peptide 12]
